# Assay results: PubChem BioAssay AID504332 (National Center for Advancing Translational Sciences (NCATS), 2011)
# Sequences of proteins named here, by UniProt entry; tags and fusion partners are left off. A change or cut given only in a name is not applied to a line headed by its entry.
# UniProt Q96KQ7: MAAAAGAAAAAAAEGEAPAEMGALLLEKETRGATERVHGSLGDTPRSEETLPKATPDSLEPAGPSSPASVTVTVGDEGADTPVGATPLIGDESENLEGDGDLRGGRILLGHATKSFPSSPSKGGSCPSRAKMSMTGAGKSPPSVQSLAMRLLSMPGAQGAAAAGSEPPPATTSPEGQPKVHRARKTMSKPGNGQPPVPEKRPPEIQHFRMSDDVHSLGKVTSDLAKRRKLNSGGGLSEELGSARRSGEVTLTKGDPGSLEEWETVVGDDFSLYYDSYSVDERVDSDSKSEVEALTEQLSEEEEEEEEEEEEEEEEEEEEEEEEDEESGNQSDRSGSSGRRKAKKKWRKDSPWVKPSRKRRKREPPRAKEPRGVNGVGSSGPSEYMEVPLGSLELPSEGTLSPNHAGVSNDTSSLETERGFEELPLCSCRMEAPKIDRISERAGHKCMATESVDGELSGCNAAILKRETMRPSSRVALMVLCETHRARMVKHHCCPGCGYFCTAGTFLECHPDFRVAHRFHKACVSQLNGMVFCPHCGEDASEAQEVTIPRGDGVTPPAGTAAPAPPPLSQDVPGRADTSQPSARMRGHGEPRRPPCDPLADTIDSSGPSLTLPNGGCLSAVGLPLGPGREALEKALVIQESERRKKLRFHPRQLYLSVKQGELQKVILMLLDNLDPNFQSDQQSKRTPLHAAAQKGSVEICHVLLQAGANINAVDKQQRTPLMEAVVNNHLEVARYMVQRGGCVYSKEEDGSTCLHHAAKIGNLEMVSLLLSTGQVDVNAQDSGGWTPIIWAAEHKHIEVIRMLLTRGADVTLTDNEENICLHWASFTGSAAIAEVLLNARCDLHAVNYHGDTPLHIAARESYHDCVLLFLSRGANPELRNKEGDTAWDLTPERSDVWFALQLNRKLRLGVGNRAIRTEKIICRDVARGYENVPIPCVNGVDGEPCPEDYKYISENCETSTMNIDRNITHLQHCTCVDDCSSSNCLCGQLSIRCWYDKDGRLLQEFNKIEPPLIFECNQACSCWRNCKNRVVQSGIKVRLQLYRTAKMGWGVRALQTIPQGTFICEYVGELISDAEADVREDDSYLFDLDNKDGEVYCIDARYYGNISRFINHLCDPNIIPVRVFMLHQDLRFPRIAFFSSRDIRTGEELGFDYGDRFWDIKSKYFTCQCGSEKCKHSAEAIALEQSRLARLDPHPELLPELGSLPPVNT
# This is a selection; strong and weak results do not stand in their true shares. Results filed as inconclusive are left out. Entries that show only a call come without a potency. Activity calls are given as the source filed them. The call rests on the fitted dose curve; in most records, active means well fitted inhibition curve with a large enough effect; inconclusive means small, poorly fitted or top-dose-only effect; inactive means no such curve, though single readings can be large or run the other way.
# Molecular target: Histone-lysine N-methyltransferase EHMT2 (Homo sapiens) (UniProt Q96KQ7)
# Experiment: qHTS Assay for Inhibitors of Histone Lysine Methyltransferase G9a; further: nearly all actives have a fitted effect of over 75% in size
# Conditions: G9a H3K9 monomethylation, AlphaScreen, 2 h; series mostly up to 102 µM
# Potency means the concentration at half of the fitted maximal effect.
Compound,Potency,"activity, negative = inhibition"
CC1=NCCc2c1[nH]c1ccccc21,active: 44.7 µM,–
Cc1ccc(OP(=O)(Nc2nccs2)Oc2ccc(C)cc2)cc1,inactive,–
COc1ccccc1OP(=O)(Nc1ccc(C)cn1)Oc1ccccc1OC,inactive,–
Clc1ccc(Cl)c(NC2=NCC(CBr)S2)c1 (stereo not drawn),active: 25.1 µM,–
CC(C)CC(=O)NC(Sc1ccc(Cl)cc1)C(Cl)(Cl)Cl (stereo not drawn),inactive,–
Nc1cc(N)c2nonc2c1[N+](=O)[O-],inactive,–
O=C(NC(Sc1ccncn1)C(Cl)(Cl)Cl)c1ccccc1 (stereo not drawn),active: 2.24 µM,–
Oc1ccccc1CNc1ccccn1,inactive,–
COc1ccc(C2=NCC(CBr)S2)cc1 (stereo not drawn),active: 35.5 µM,–
CC(=O)N1C2C3N(C(C)=O)C1C1N(C(C)=O)C(C(N1C(C)=O)N3C(C)=O)N2C(C)=O,inactive,–
O=[N+]([O-])c1cccc2n[nH]nc12,inactive,–
CCc1nc2c(n1)c1c(non1O)c1c2no[n+]1[O-],active: 56.2 µM,–
Cc1ccc(NP(=O)(Oc2ccccc2)Oc2ccccc2)nc1,inactive,–
CCN(/C(=N/P(=O)(N1CCOCC1)N1CCOCC1)N1CCOCC1)c1ccc(OC)cc1,inactive,–
CN(C)C(=O)OCCc1n(C)cc[n+]1C,inactive,–
CC1CCN(C(=O)Oc2c(Cl)cc(Cl)c3cccnc23)CC1,inactive,–
CC(=O)C1=CCCC2CCC1N2 (stereo not drawn),inactive,–
O=C(Nc1cc([As](=O)(O)O)ccc1O)c1ccccc1,–,inactive: 43.2% [at 0.501 µM]
CC(C)(C)C(=O)NC(Sc1ccncn1)C(Cl)(Cl)Cl (stereo not drawn),active: 8.91 µM,–
O=[N+]([O-])c1ncn(CCn2ncnc2[N+](=O)[O-])n1,inactive,–
O=C(O)CNc1ccc([As](=O)(O)O)cc1,inactive,–
O=P(Nc1ccccn1)(c1ccc(Br)cc1)c1ccc(Br)cc1,inactive,–
O=P(Nc1nc2ccccc2s1)(c1ccccc1)c1ccccc1,inactive,–
CN(C(=O)Cc1ccccc1)[C@H]1CC[C@@]2(CCCO2)C[C@@H]1N1CCCC1,inactive,–

Compound,Potency,"activity, negative = inhibition"
O=[N+]([O-])c1ncn(CCn2cnc([N+](=O)[O-])n2)n1,inactive,–
CC(=O)NC(SC(=S)N(C)C)C(Cl)(Cl)Cl (stereo not drawn),active: 28.2 µM,–
O=[As](O)(c1ccccc1)c1ccc(O)cc1,inactive,–
O=P(Nc1nccs1)(c1ccccc1)c1ccccc1,–,inactive: 0.637% [at 12.7 µM]
CC(C)C(=O)NC(Sc1ccccc1)C(Cl)(Cl)Cl (stereo not drawn),inactive,–
c1nnnn1CCn1cnnn1,–,inactive: 26.7% [at 2.33 µM]
CCOc1ccc(C2=NCC(CBr)S2)cc1 (stereo not drawn),active: 39.8 µM,–
O=P1(Nc2nc3ccc(Cl)cc3s2)COc2ccccc2O1 (stereo not drawn),inactive,–
CC(C)(C)C(=O)NC(Sc1ccccc1)C(Cl)(Cl)Cl (stereo not drawn),inactive,–
CC(=O)c1ccc(N2CC2c2ccncc2)cc1 (stereo not drawn),inactive,–
C[C@H]1OP(=O)(Oc2ccccc2)C[C@@H]2O[C@@H]21 (stereo partly drawn),–,inactive: 29.7% [at 12.7 µM]
Cc1ccccc1CN(C)C(=O)COC(=O)C(O)(c1ccccc1)c1ccccc1,–,inactive: 6.8% [at 2.33 µM]
CC(=O)Nc1ccc(Oc2c([N+](=O)[O-])cc([N+](=O)[O-])cc2[N+](=O)[O-])cc1,active: 44.7 µM,–
O=C(NC1CCS(=O)(=O)C1)NP(=S)(Oc1ccccc1)Oc1ccccc1 (stereo not drawn),inactive,–
CCNC(=S)/N=C(\N)N[N+](=O)[O-],inactive,–
CCOC(=O)NC(Sc1ccccc1)C(Cl)(Cl)Cl (stereo not drawn),inactive,–
Cc1ccc(NP(=O)(Oc2cccc(C)c2)Oc2cccc(C)c2)nc1,–,inactive: 20.5% [at 12.7 µM]
Cc1ccc(OP(=O)(Nc2ccccn2)Oc2ccc(C)cc2)cc1,inactive,–
COC(=O)c1cc2c(s1)N=C(c1ccccc1)N(C)P2(=O)N1CCOCC1 (stereo not drawn),inactive,–
CCC(=O)N1C2C3N(C(=O)CC)C1C1N(C(=O)CC)C(C(N1C(=O)CC)N3C(=O)CC)N2C(=O)CC,inactive,–
O=C(OC1CN2CCC1CC2)c1ccccc1 (stereo not drawn),inactive,–
CN(C)C(=O)Oc1noc2ccccc12,inactive,–
O=c1c2cc([N+](=O)[O-])ccc2[nH]c2c([N+](=O)[O-])cc([N+](=O)[O-])cc12,inactive,–
Cc1ccccc1OP(=O)(Nc1ccccn1)Oc1ccccc1C,inactive,–
